In this assay the target is T1, 15-Lox-2 (second type of human 15S-lipoxygenase) (Homo sapiens, UniProt O15296, Q656R).
T1 construct: Initially, five full length clones were expressed in HEK 293 cells; expressed in transfected cells; host or cells: HEK 293 cells, transient transfection (pCDNA3 or pCR3); sonicated cells incubated with substrate
T1 sequence (O15296 1-676 Q656R): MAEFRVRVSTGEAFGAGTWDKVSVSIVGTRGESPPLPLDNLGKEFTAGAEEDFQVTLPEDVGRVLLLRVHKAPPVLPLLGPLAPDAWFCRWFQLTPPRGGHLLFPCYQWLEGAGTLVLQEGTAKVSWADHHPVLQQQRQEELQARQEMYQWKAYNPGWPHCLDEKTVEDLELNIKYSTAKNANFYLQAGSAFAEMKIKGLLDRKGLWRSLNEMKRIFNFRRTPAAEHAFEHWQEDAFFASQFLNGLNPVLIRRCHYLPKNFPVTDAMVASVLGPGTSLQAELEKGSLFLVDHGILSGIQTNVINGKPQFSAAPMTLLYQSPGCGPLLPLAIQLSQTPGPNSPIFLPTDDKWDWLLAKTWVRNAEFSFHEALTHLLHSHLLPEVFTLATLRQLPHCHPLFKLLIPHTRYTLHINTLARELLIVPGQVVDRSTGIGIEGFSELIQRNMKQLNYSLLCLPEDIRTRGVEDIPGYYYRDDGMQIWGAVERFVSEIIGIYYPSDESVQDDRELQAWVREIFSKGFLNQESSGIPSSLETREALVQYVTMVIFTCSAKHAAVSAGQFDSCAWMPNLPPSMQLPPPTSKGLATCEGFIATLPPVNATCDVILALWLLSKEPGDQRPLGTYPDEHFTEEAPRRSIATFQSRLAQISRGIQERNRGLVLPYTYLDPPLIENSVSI
Kind of assay: Lipoxygenase metabolism of 14C substrates by the new 15S-lipoxygenase expressed in HEK 293 cells, HPLC analysis. In kind it is biochemical. From the text:
The PCR products corresponding to the open reading frame of the cDNA were subcloned into the pCDNA3 vector (Invitrogen), or in some experiments ligated directly into pCR3 (Invitrogen), and expressed by transient transfection in human embryonic kidney (HEK) 293 cells as described (Funk et al. (1996) J. Biol. Chem. 271, 23338-23344).

This note sets out measurements from US6649355B2, “Lipoxygenase proteins and nucleic acids” (priority 1998, dated 2003).

As for `CCCCC/C=C\C/C=C\C/C=C\C/C=C\CCCC(=O)O` [arachidonic acid], the “product formed from the substrate” value is “exclusively to 15S-hydroperoxyeicosatetraenoic acid”.
